Arrestin-AP2 inh = inhibitors of beta-arrestin/AP2 binding, primary screen, biochemical, GPCR trafficking, flow cytometry. AID 504490, 2011. inhibition, % at 10 µM. hit rate 0.31% among 340,000. FITC-arrestin peptide / GST-AP2 beads; AP2 beta2 appendage carries R879A mutation;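 active = inhibition above a set limit, near 3 SD of compounds lacking own fluorescence, cut at about 54% in these data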;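 also: plate controls were DMSO wells for no effect and 5 µM unlabelled arrestin peptide for full effect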
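Measured by: flow cytometry, FL1 (488/535 nm); Material: AP2 appendage R879A on GSH beads; Evaluation: percent response; Timing: pre-incubation 12 min, peptide binding 1 h, room temperature; Also added: 50 nM FITC-arrestin peptide; Medium: PBS with 0.05% Tween 20 and 0.1% BSA.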
TbMetRS inhib = T. brucei MetRS inhibitors, primary screen, biochemical, luminescence; purified T. brucei MetRS, ATP depletion, Kinase-Glo luminescence; inhibition, % at 11.9 µM; hit rate 0.4% among 360,000; AID 624268, 2012;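 active = inhibition above a per-plate cutoff of the control wells' mean inhibition plus 3 SD, cut at about 5.5% in these data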;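 also: 0% = DMSO wells median and 100% = median of wells with control inhibitor compound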
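Assay system: T. brucei methionyl-tRNA synthetase, purified | Medium: HEPES buffer with MgCl2, KCl, DTT, spermine, BSA, pyrophosphatase | Compound: 11.9 µM single point | Incubation: 15 min enzyme-compound preincubation, 2 h reaction, 10 min detection, 25 °C | Measured by: Kinase-Glo luciferase luminescence reporting remaining unconsumed ATP | Measure: % inhibition normalized to control-well medians | Replication: Singlicate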
DSG3 Ab inh = inhibitors of pemphigus antibody binding to DSG3, primary screen, biochemical, bead-based, flow cytometry, scFv-GFP | Desmoglein-3 (Homo sapiens), P32926 | DSG3-coupled beads, scFv-anti-DSG3-GFP binding; hits give low values | binding (percent of control), % at 10 µM | hit rate 0.48% among 310,000 | AID 588358, 2011;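 active = binding more than 3 SD below its plate's average and above zero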;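 also: hits lower antibody fragment binding to DSG3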
UUG fidelity = modulators of start codon recognition fidelity in yeast; S. cerevisiae UUG-firefly luciferase reporter, luminescence/redox ratio; AID 602363; 350,000 tested, 0.13% active; activity score, % at 18.7 µM;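 active = replicate mean at a twofold rise or more, about +100% in these data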;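 also: firefly luciferase made from a UUG start codon reports start codon fidelity; reporter light over untreated wells divided by growth signal over untreated wells; some hits fall short of that in this replicate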
Rce1 inhib = yeast Rce1p protease inhibitors, primary screen, biochemical, fluorescence, cell-free homogeneous; CAAX prenyl protease 2 (Saccharomyces cerevisiae (strain ATCC 204508 / S288c)), Q03530; yeast membranes, quenched prenylated peptide cleavage fluorescence; calls only; hit rate 0.27% among 290,000; AID 2563, 2010;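 active = fall in fluorescence gain of 50% or more versus controls, with final raw signal at or below 3038400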;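 also: plate controls were neutral control wells for no effect and wells lacking membranes for full effect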
Active calls of the source: *; i = inactive; nt = no result; + = active, no number. Most compounds without a hit are left out; they make up all but 1.2% or so of the library.

Amino acid sequences for entries named in this document (tags omitted).
Desmoglein-3 (Homo sapiens), P32926, UniProt P32926, whole entry, looked up: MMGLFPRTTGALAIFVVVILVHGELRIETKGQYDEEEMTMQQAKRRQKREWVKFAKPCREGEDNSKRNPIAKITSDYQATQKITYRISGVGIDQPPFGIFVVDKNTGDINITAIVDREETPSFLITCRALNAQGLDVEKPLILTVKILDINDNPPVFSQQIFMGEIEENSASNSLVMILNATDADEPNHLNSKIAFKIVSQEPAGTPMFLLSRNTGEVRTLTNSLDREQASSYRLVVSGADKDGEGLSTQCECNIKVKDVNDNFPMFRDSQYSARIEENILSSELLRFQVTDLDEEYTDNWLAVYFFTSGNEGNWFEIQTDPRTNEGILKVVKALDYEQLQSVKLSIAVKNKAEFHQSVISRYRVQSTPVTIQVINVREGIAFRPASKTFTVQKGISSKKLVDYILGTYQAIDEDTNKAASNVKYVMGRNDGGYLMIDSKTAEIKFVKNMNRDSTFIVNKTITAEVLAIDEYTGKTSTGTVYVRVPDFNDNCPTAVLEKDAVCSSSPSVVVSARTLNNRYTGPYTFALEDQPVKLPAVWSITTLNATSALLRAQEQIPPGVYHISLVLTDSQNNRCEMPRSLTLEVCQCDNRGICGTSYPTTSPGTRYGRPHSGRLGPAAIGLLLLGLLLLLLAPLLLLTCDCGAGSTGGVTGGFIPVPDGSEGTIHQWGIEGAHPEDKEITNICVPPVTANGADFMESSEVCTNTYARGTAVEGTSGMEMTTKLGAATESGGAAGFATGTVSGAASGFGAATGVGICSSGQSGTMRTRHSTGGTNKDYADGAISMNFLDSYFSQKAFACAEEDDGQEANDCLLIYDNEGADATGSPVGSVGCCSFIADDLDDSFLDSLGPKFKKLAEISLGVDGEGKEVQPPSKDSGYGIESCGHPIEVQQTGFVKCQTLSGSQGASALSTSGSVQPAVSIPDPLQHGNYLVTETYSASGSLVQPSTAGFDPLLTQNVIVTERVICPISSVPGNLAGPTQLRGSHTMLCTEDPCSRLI

Structure	Arrestin-AP2 inh	TbMetRS inhib	DSG3 Ab inh	UUG fidelity	Rce1 inhib
COc1ccc(-n2c(SCC(=O)Nc3cc(C)on3)nc3c([nH]c4ccccc43)c2=O)cc1	8	-1	-8.2*	-10	i
COC(=O)c1sccc1NC(=O)CSc1nnnn1-c1ccccc1C	24	0	102	-12	+
COc1ccccc1NC(=O)CSc1nnnn1-c1ccccc1F	23	-1	110	-10	i
COC(=O)c1ccc(N(CC(=O)NC2CCCCC2)C(=O)CNC(=O)c2ccco2)cc1	18	-1	109	-24	i
CC(=O)c1ccc(N(CC(=O)NC2CCCCC2)C(=O)CNC(=O)c2ccco2)cc1	20	0	37*	-9	i
Cc1ccc(NC(=O)COc2ccc(/C=N/NC(=O)CSCc3ccccc3)cc2)cc1	-4	0	81*	-14	i
COc1ccc(CSCC(=O)N/N=C/c2ccccc2O)cc1	16	2	53*	nt	i
O=C(Nc1ccccc1)OCCOc1ccccc1Br	2	-1	69*	-1	i

Structure	Arrestin-AP2 inh	TbMetRS inhib	DSG3 Ab inh	UUG fidelity	Rce1 inhib
O=C(Nc1ccccc1)OCCCCCOC(=O)Nc1ccccc1	-17	0	79*	-12	i
CC1=CCC(C(=O)O)(C(=O)N/N=C/c2cccs2)C(c2ccc([N+](=O)[O-])cc2)C1 (stereo not given)	-5	-1	33*	10	i
Cc1cccc(NS(=O)(=O)c2ccc(NC(=O)N3CCCCC3)cc2)c1	-1	0	104	-9	i
Cc1ccc(NS(=O)(=O)c2ccc(NC(=O)N3CCCCC3)cc2)cc1	6	0	nt	-11	+
CCOC(=O)/C=C/c1c(OC)cccc1OC	nt	nt	nt	2	nt
C#CCN(C[C@H]1[C@H](OC(=O)NCc2ccccc2)[C@H](OC(=O)NCc2ccccc2)C[C@H]2C(=O)N(c3ccccc3)C(=O)[C@@H]12)S(=O)(=O)c1ccc(C)cc1	nt	-1	89*	1	nt
C[C@H](CO)N1C[C@H](C)[C@@H](CN(C)C)Oc2ncc(C3=CCCC3)cc2C1=O	nt	nt	nt	-8	nt
CC(C)c1ccc(N(CC(=O)NCc2ccco2)C(=O)CCC(=O)Nc2nccs2)cc1	-14	0	-39*	-15	nt

Structure	Arrestin-AP2 inh	TbMetRS inhib	DSG3 Ab inh	UUG fidelity	Rce1 inhib
O=C(CCC(=O)N(CC(=O)NC1CCCC1)c1ccc(F)cc1)Nc1nccs1	36	0	48*	-4	i
COc1ccccc1-c1nc(C(=O)NCC2CCCO2)cc2c1[nH]c1ccccc12 (stereo not given)	-3	-1	77*	-11	i
COc1cc(-c2nc(C(=O)NCC3CCCO3)cc3c2[nH]c2ccccc23)cc(OC)c1OC (stereo not given)	22	-1	95	-10	i
CCCCOc1ccc(/C=N/NC(=S)Nc2cccc(C)c2C)cc1	2	-1	2.8*	-32	i
O=C(Nc1ccc(Nc2ccccc2)cc1)C1CC1	16	0	95	2	i
O=C(Nc1ccc(-n2cccc2)cc1)C1CC1	14	-1	68*	nt	i
CC(C)(C)C1CCC(C(=O)Nc2ccccc2)CC1 (stereo not given)	4	-1	66*	-7	i
CCOCCCNc1nc2ccccc2[nH]1	5	8.2*	115	-14	i

Structure	Arrestin-AP2 inh	TbMetRS inhib	DSG3 Ab inh	UUG fidelity	Rce1 inhib
O=C(COc1ccccc1)Nc1cc(Cl)ccc1Cl	8	-1	80*	-23	i
O=C(COc1ccccc1)Nc1ccc(Cl)cc1Cl	nt	nt	nt	nt	i
CCOC(=O)c1nnn2c1nc(N1CCCCC1)c1ccccc12	2	0	nt	nt	i
CCOC(=O)c1nnn2c1nc(N1CCOCC1)c1ccccc12	-8	0	109	2	+
CO[C@H]1CN(C)C(=O)c2cc(NC(=O)C3CC3)ccc2OC[C@@H](C)N(C(=O)CN(C)C)C[C@@H]1C	nt	nt	nt	-15	nt
Cc1ccc(-n2c(C)cc(-c3csc(N)n3)c2C)cc1	20	-1	101	-10	i
Cc1cc(-c2csc(N)n2)c(C)n1Cc1ccco1	34	-1	71*	nt	i
Cc1cc(-c2csc(N)n2)c(C)n1C	47	1	73*	-11	i

A different layout for some results above.
smiles: CCOC(=O)c1nnn2c1nc(N1CCCCC1)c1ccccc12
  Arrestin-AP2 inh = 2	TbMetRS inhib = 0	DSG3 Ab inh = nt	UUG fidelity = nt	Rce1 inhib = i
smiles: O=C(COc1ccccc1)Nc1ccc(Cl)cc1Cl
  Arrestin-AP2 inh = nt	TbMetRS inhib = nt	DSG3 Ab inh = nt	UUG fidelity = nt	Rce1 inhib = i

High-throughput results deposited in PubChem by several laboratories.
